The data set has as its system Sprague-Dawley rats. Nature of the data set: 7-day multidose oral dosing toxicology study. As to conditions: 7 days; for self mutilation (number of animals): n = 6, oral.

Consider `CC1CCN(CC2(c3ccc(Cl)cc3)CCC2)CC1COc1ccc(C(F)(F)F)cc1` (stereo not drawn) [CNS-27,100], for which the observed symptoms result (Sprague-Dawley rats (n = 6; 3M/3F), oral, 100 mg/kg/day) was “did not display any significant symptoms”. Also, the “self mutilation (number of animals)” value runs as follows: (200 mg/kg/day) 1 self mutilation; (400 mg/kg/day) 3 self mutilation.

For the origin of these results see US8258305B2, “Dopamine transporter inhibitors for use in treatment of movement disorders and other CNS indications” (Prexa Pharmaceuticals, Inc., priority 2005, dated 2012).
